From PMC11796224, “Merck Open Global Health Library in vitro screening against Schistosoma mansoni identified two new substances with antischistosomal activities for further development” (Parasites & Vectors, 2025)

The chains behind the UniProt entries cited, without tags or fusion partners.
UniProt P49238, whole entry: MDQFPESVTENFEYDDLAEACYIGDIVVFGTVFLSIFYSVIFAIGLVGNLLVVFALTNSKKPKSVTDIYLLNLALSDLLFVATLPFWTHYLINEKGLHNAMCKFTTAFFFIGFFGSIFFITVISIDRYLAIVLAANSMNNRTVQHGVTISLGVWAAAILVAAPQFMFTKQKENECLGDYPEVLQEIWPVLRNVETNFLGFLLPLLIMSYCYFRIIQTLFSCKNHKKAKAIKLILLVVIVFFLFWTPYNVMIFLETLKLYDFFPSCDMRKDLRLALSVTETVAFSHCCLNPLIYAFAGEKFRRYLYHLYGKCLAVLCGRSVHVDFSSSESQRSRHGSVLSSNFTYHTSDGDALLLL

How the values were obtained:
[1] = Kinetic solubility; format: physicochemical; conditions: PBS pH 7.4, 2 h
[2] = system: Caco-2 cell line; test: Caco-2 permeability assay; format: in vitro ADME; conditions: for Caco-2 permeability apical to basolateral / Caco-2 permeability basolateral to apical: 10 µM, 2 h, 37 °C; for Efflux ratio: Caco-2
[3] = target: CX3CR1 (Homo sapiens, UniProt P49238); test: Cellular CX3CR1 assay; format: cell-based; conditions: read-out: IC50 in cellular CX3CR1 assays
[4] = target: PDE-V (guinea pig, lung) (Cavia porcellus, UniProt H0VD23); test: PDE-V enzyme assay; format: biochemical; conditions: read-out: IC50 in enzyme assays using PDE-V, tested form: Na salt
[5] = Intrinsic clearance, mouse; format: in vitro ADME; conditions: 1 µM, 30 min incubation, tested form: Na salt
[6] = Intrinsic clearance, human; format: in vitro ADME; conditions: 1 µM, 30 min incubation, tested form: Na salt

Compound	Kinetic solubility [1]	Caco-2 permeability apical to basolateral [2]	Caco-2 permeability basolateral to apical [2]	Efflux ratio [2]	IC50 [3]	IC50 [4]	Intrinsic clearance [5]	Kinetic solubility ([1]; tested form: Na salt)	Intrinsic clearance [6]	Caco-2 permeability apical to basolateral ([2]; tested form: Na salt)	Caco-2 permeability basolateral to apical ([2]; tested form: Na salt)	Efflux ratio ([2]; tested form: Na salt)
Clc1cccc(OCc2ncc3nccnc3n2)c1Cl	170 µM	24.3 ×10⁻⁶ cm/s	20.9 ×10⁻⁶ cm/s	0.86	135 nM							
COc1ccc(CNc2nc(-c3ccc(C(=O)O)nc3)nc3sc4c(c23)CCCC4)cc1Cl						1.7 nM	42.0 µl/min per mg protein	150 µM	20.0 µl/min per mg protein	0.08 ×10⁻⁶ cm/s	0.22 ×10⁻⁶ cm/s	2.75
